Assay results reported in PMC8758481, “Astroglial tracer BU99008 detects multiple binding sites in Alzheimer’s disease brain” (Molecular Psychiatry, 2021).

Test system: imidazoline-2 binding sites (I2BS)
Assay: ^3H-BU99008 competition binding with unlabelled BU99008 in the presence of MAO B inhibitors
Design: species or system human
Method: A similar protocol as saturation binding assay was performed after 1 h incubation and the binding was quantified using the scintillation counter.
The competition binding data was fitted and analysed using non-linear regression competitive-binding function of GraphPad Prism 8.3 software to determine IC50 (half-maximal inhibitory concentration) values.

Compound: C#CCN(C)[C@H](C)Cc1ccccc1 [deprenyl, (R)-(-)-Deprenyl]
- effect on binding of BU99008 to the SH binding sites (CN, ^3H-BU99008 competition): completely blocked
- decrease in ^3H-BU99008 total binding (CN, lower concentration ranges [10^-14-10^-9]): 15–30%
- effect on binding of BU99008 to HA binding sites (both CN and AD cases, increasing concentrations of inhibitor): not affected
